# Reference: ChEMBL document CHEMBL1201862, “PubChem BioAssay data set” (2004)
# Sequences of proteins named here, by UniProt entry; tags and fusion partners are left off. A change or cut given only in a name is not applied to a line headed by its entry.
# UniProt O15296: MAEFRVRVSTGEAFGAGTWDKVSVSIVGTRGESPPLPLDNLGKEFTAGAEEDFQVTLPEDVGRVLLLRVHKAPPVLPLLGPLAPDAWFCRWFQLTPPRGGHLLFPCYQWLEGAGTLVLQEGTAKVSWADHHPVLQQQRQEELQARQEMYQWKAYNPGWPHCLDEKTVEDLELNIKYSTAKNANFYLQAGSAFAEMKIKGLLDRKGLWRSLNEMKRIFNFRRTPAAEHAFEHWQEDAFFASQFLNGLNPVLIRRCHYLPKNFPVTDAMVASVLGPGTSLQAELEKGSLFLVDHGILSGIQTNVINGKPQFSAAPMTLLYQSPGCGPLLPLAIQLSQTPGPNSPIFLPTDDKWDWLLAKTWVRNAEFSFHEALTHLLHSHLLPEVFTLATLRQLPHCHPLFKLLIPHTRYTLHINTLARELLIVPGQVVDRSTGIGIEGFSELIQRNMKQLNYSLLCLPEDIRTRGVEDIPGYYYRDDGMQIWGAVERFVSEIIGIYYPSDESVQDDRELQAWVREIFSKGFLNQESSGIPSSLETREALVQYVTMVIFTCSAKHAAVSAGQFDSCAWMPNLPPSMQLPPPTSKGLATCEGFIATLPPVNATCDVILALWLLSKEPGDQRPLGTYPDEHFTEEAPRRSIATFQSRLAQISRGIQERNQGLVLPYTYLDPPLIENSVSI
# UniProt P16050: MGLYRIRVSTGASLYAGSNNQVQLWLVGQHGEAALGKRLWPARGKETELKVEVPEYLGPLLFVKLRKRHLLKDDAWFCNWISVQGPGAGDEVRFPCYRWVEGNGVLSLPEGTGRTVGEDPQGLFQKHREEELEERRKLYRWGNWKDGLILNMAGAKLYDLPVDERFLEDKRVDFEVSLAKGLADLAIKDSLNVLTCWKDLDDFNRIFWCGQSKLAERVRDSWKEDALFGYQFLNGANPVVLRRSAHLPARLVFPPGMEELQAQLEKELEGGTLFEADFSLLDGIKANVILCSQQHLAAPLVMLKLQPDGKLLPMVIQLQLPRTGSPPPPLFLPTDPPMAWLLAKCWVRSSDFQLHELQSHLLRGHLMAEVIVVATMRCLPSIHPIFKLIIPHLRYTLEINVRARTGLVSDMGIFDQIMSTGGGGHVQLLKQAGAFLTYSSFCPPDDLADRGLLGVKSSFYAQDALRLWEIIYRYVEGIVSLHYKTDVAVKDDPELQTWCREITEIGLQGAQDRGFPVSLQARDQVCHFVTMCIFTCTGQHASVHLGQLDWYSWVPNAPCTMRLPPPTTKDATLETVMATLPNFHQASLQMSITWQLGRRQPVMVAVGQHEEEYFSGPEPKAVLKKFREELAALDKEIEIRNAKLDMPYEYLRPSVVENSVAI
# UniProt P04637, whole entry, looked up: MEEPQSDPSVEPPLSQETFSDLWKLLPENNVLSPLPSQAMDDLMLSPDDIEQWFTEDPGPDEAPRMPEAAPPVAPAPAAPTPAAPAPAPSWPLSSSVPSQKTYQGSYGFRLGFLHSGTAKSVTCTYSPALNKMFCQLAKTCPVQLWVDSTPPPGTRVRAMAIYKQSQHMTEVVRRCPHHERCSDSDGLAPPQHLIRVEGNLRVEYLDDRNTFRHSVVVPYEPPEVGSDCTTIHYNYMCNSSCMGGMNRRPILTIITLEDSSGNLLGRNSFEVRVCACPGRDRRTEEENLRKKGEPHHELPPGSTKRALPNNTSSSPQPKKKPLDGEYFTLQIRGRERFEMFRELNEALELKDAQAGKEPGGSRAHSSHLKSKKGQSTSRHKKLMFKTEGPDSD
# UniProt P15428: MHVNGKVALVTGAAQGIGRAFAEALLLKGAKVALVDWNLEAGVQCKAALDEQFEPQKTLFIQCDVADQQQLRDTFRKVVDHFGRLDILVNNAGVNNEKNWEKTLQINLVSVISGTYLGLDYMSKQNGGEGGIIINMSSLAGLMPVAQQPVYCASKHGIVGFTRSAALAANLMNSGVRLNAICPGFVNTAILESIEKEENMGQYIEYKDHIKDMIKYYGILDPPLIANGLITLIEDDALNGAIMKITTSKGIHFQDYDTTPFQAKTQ
# UniProt P14618, whole entry, looked up: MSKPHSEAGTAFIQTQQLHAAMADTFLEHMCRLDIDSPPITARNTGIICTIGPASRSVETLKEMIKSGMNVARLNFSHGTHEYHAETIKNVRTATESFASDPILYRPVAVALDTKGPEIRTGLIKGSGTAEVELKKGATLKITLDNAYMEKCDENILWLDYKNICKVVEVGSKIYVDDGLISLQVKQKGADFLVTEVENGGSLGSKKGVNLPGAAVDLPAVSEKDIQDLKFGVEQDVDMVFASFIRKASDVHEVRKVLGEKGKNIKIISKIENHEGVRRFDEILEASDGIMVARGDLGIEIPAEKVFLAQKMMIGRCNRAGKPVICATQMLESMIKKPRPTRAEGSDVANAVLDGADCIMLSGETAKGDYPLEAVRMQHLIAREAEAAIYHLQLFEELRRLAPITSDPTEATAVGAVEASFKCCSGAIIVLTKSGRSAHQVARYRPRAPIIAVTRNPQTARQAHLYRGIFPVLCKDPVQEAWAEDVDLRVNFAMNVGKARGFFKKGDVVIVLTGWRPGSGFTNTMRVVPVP
# UniProt P83916, whole entry, looked up: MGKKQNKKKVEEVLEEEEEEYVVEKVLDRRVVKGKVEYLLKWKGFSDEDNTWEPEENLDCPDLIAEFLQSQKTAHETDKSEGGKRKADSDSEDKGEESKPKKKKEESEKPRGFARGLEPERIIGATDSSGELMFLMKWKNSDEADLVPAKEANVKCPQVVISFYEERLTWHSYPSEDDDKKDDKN
# UniProt Q9NUW8, whole entry, looked up: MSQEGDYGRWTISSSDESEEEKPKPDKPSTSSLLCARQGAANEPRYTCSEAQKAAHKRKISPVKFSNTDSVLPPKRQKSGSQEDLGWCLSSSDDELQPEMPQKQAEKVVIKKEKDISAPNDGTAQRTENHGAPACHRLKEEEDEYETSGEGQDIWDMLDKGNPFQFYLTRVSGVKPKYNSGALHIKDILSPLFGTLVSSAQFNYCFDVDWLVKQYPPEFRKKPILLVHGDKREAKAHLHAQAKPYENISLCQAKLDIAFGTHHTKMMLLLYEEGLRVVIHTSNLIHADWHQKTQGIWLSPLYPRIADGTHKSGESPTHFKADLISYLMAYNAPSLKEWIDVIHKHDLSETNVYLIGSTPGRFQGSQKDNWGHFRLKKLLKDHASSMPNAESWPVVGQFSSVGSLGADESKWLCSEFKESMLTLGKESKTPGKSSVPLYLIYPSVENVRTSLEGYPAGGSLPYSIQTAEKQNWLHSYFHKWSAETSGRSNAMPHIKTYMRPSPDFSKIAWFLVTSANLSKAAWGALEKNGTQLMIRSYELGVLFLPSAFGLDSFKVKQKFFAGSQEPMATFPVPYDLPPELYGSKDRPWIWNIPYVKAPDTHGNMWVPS
# UniProt P84022, whole entry, looked up: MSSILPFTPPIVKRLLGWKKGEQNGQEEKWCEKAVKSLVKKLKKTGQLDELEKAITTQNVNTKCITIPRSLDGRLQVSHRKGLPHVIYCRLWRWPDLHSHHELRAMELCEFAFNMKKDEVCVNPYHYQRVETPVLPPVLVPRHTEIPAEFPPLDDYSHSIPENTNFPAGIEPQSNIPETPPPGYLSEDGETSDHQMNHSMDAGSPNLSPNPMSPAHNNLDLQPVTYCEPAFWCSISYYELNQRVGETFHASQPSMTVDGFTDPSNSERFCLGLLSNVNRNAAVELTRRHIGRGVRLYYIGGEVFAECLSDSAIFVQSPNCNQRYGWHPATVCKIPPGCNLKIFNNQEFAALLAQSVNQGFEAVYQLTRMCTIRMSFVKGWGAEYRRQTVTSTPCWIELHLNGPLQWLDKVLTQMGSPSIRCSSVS
# UniProt Q16236, whole entry, looked up: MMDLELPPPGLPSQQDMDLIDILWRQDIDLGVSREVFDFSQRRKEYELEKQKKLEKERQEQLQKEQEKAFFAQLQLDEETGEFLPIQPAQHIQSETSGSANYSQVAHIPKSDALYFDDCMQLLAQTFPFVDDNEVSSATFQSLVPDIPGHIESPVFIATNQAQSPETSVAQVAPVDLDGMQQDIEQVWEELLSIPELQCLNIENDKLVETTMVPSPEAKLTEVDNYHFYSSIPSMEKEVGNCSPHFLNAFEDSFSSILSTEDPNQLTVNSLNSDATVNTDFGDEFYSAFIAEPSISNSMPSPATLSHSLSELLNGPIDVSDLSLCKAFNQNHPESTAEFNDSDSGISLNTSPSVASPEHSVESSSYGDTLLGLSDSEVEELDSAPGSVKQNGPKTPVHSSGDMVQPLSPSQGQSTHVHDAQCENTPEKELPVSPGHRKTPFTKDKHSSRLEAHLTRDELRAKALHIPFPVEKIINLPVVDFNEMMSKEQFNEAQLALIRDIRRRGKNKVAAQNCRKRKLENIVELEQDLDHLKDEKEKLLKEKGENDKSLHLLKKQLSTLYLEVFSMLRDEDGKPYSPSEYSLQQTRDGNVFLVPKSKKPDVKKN
# UniProt Q13148, whole entry, looked up: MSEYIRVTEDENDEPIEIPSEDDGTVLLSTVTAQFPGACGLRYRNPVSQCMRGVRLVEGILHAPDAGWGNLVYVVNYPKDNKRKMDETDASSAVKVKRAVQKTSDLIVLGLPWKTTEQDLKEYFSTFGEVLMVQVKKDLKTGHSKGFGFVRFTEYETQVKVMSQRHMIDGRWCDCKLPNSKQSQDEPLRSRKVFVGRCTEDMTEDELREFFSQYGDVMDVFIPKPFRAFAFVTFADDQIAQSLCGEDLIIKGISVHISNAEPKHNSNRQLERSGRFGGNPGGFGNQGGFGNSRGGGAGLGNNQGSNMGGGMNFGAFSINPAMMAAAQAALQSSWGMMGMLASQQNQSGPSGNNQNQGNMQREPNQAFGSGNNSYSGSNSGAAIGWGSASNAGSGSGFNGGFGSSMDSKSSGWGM
# This is a selection; strong and weak results do not stand in their true shares. These assays gave more results; the selection is not random. The list shows a part of the results. For some of these results: Entries with a potency or affinity are not part of this list. Calls of active or inactive are those of the source. Unless noted, no cut-off for these calls is given here.
# Experiments:
# [1] = molecular target: Polyunsaturated fatty acid lipoxygenase ALOX15B (Homo sapiens) (UniProt O15296); test: qHTS Assay for Inhibitors of 15-hLO-2 (15-human lipoxygenase 2). [Related pubchem assays (depositor defined):AID2312, AID2537, AID2702]; format: functional
# [2] = molecular target: 3-hydroxyacyl-CoA dehydrogenase type-2 (Homo sapiens) (UniProt Q99714); test: qHTS Assay for Inhibitors of HSD17B4, hydroxysteroid (17-beta) dehydrogenase 4.; format: functional
# [3] = qHTS Assay for Compounds that Induce Erasure of Genomic Imprints.; format: functional
# [4] = molecular target: Lysosomal alpha-glucosidase (Homo sapiens) (UniProt P10253); test: qHTS Assay for Inhibitors and Activators of Human alpha-Glucosidase Cleavage of Glycogen. [Related pubchem assays: 1473, 1466 ]; format: functional
# [5] = molecular target: T1, Nuclear receptor ROR-gamma (Mus musculus) (UniProt P51450); test: qHTS for inhibitors of ROR gamma transcriptional activity.; format: functional
# T1 sequence (whole entry): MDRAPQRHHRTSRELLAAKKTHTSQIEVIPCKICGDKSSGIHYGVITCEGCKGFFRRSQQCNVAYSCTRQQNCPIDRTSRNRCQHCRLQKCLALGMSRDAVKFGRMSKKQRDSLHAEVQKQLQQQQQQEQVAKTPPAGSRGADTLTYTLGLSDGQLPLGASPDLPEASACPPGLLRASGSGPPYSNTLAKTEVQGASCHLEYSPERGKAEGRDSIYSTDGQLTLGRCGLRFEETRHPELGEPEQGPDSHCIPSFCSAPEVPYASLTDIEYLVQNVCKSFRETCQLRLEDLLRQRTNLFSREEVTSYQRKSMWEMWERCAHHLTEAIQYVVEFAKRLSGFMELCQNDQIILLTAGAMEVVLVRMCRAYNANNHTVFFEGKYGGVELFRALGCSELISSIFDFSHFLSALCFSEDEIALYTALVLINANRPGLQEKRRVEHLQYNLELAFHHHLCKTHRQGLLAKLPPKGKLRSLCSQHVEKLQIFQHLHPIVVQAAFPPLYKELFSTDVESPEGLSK
# [6] = molecular target: T2, 4'-phosphopantetheinyl transferase ffp (Bacillus subtilis) (UniProt Q9F4F7); test: qHTS Assay for Inhibitors of Bacillus subtilis Sfp phosphopantetheinyl transferase (PPTase).; format: functional
# T2 sequence (whole entry): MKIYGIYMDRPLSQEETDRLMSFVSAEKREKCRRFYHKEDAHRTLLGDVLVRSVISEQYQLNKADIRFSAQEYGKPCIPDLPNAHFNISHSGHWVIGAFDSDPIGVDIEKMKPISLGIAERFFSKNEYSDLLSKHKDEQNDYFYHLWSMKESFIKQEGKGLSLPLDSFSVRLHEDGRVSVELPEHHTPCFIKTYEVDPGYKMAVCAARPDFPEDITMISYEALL
# [7] = molecular target: Polyunsaturated fatty acid lipoxygenase ALOX15 (Homo sapiens) (UniProt P16050); test: qHTS Assay for Inhibitors of 15-hLO (15-human lipoxygenase).; format: functional
# [8] = molecular target: Cellular tumor antigen p53 (Homo sapiens) (UniProt P04637); test: qHTS assay for re-activators of p53 using a Luc reporter. [Related pubchem assays (depositor defined):AID504709]; format: functional
# [9] = molecular target: T3, Histone-lysine N-methyltransferase EHMT2 (Homo sapiens) (UniProt Q96KQ7); test: qHTS Assay for Inhibitors of Histone Lysine Methyltransferase G9a. [Related pubchem assays (depositor defined):AID504404]; format: functional
# T3 sequence (whole entry): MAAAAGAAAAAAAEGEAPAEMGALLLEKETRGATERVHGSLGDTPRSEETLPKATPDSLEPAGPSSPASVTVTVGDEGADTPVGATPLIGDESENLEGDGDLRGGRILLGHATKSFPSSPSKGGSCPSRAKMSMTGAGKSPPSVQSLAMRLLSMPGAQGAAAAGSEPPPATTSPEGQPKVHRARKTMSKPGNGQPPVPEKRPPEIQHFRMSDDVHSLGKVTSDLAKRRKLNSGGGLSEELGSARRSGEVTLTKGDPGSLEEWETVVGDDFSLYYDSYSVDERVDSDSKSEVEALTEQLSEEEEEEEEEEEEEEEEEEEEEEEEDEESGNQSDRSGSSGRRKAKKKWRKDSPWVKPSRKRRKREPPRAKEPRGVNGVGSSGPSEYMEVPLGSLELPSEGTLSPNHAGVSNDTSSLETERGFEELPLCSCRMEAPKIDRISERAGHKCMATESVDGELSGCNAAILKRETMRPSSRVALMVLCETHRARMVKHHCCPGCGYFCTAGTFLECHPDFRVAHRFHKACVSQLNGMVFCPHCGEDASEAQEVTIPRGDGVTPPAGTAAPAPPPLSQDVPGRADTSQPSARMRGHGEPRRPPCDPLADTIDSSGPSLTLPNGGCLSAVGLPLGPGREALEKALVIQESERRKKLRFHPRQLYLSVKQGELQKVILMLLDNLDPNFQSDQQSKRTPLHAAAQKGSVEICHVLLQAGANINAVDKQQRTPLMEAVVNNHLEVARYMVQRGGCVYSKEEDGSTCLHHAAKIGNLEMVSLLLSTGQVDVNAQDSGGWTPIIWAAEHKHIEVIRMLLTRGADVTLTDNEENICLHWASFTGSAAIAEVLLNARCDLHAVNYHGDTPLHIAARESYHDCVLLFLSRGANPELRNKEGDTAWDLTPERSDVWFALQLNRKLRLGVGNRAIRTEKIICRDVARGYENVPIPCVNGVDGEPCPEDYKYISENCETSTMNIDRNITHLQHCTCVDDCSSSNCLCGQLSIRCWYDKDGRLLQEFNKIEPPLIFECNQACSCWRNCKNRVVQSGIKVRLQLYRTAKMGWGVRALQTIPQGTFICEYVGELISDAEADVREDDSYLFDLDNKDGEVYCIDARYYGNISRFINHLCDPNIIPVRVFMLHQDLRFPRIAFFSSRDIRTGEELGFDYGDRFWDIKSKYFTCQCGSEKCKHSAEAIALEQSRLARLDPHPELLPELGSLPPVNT
# [10] = molecular target: 15-hydroxyprostaglandin dehydrogenase [NAD(+)] (Homo sapiens) (UniProt P15428)
# [11] = molecular target: Pyruvate kinase PKM (Homo sapiens) (UniProt P14618); test: qHTS Assay for Inhibitors of Human Muscle isoform 2 Pyruvate Kinase. [Related pubchem assays: 1379 ]; format: functional
# [12] = molecular target: Chromobox protein homolog 1 (Homo sapiens) (UniProt P83916); test: HTS for Inhibitors of HP1-beta Chromodomain Interactions with Methylated Histone Tails. [Related pubchem assays (depositor defined):AID488962]; format: functional
# [13] = molecular target: Tyrosyl-DNA phosphodiesterase 1 (Homo sapiens) (UniProt Q9NUW8); test: qHTS for Inhibitors of human tyrosyl-DNA phosphodiesterase 1 (TDP1): qHTS in cells in presence of CPT.; format: functional
# microRNA 21 = test: qHTS Assay for Modulators of miRNAs and/or Activators of miR-21.; format: functional; conditions: Homo sapiens
# [14] = molecular target: T4, Thioredoxin reductase 1, cytoplasmic (Rattus norvegicus) (UniProt O89049); test: qHTS Assay for Inhibitors of Mammalian Selenoprotein Thioredoxin Reductase 1 (TrxR1): qHTS. [Related pubchem assays (depositor defined):AID488771]; format: functional
# T4 sequence (whole entry): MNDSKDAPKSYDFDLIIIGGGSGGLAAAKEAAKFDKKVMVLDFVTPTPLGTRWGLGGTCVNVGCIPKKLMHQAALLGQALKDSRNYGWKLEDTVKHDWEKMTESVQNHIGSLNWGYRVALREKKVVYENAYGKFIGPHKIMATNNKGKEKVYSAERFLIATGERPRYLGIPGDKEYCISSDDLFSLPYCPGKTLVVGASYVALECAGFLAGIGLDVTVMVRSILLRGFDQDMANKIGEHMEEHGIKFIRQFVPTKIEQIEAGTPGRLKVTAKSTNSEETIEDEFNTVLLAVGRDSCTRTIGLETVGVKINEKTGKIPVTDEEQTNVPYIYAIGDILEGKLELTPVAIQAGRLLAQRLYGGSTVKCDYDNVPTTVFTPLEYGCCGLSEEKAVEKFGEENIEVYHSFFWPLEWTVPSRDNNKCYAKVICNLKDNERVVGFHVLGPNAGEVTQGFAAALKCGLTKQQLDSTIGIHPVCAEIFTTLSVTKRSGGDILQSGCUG
# [15] = molecular target: Tyrosyl-DNA phosphodiesterase 1 (Homo sapiens) (UniProt Q9NUW8); test: qHTS for Inhibitors of human tyrosyl-DNA phosphodiesterase 1 (TDP1): qHTS in cells in absence of CPT.; format: functional
# [16] = molecular target: T5, DNA polymerase iota (Homo sapiens) (UniProt Q9UNA4); test: qHTS for Inhibitors of Polymerase Iota. [Related pubchem assays (depositor defined):AID588623]; format: functional
# T5 sequence (whole entry): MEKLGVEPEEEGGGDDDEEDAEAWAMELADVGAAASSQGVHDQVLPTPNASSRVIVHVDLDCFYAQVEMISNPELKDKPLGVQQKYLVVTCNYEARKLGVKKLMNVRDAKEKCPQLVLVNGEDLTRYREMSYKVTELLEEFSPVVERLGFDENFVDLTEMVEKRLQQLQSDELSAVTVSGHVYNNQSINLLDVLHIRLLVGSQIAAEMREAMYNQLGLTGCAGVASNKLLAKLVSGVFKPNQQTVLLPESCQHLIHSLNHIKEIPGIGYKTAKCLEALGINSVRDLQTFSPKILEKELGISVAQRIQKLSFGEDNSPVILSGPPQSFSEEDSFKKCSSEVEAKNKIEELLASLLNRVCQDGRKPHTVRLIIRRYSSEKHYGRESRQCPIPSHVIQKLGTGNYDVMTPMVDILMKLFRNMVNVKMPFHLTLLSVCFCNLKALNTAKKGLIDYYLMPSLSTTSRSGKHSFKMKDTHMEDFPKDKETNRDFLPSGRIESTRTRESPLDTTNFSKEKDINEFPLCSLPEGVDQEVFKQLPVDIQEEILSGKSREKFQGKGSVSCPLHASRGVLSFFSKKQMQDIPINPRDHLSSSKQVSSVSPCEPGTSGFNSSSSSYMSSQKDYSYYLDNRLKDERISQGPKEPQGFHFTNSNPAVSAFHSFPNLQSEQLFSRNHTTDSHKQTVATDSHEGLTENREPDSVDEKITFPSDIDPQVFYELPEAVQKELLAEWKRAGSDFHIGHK
# [17] = molecular target: Guanine nucleotide-binding protein G(s) subunit alpha isoforms short (Homo sapiens) (UniProt P63092); test: qHTS for Agonist of gsp, the Etiologic Mutation Responsible for Fibrous Dysplasia/McCune-Albright Syndrome: qHTS.; format: functional
# HepG2 = test: qHTS for Inhibitors of TGF-b: Cytotox Counterscreen. [Related pubchem assays (depositor defined):AID588855, AID588860]; format: functional; conditions: Homo sapiens
# [18] = molecular target: Mothers against decapentaplegic homolog 3 (Homo sapiens) (UniProt P84022); test: qHTS for Inhibitors of TGF-b. [Related pubchem assays (depositor defined):AID588856, AID588860]; format: functional
# [19] = molecular target: Nuclear factor erythroid 2-related factor 2 (Homo sapiens) (UniProt Q16236); test: qHTS of Nrf2 Activators.; format: functional
# [20] = molecular target: Glycoprotein hormones alpha chain (Homo sapiens) (UniProt P01215); test: qHTS for Activators of Integrin-Mediated Alleviation for Muscular Dystrophy.; format: functional
# [21] = molecular target: Alpha-synuclein (Homo sapiens) (UniProt P37840); test: qHTS of alpha-syn Inhibitors.; format: functional
# [22] = molecular target: TAR DNA-binding protein 43 (Homo sapiens) (UniProt Q13148); test: qHTS of TDP-43 Inhibitors.; format: functional
structure (smiles),measurement,setting,value
Cc1nc2ccc3ccccc3c2o1,Potency,[1],active: 12.6 µM
same,Potency,[2],active: 20 µM
same,Potency,[3],inactive
same,Potency,[4],active: 24.9 µM
same,Potency,[5],active: 17.8 µM
same,Potency,[6],active: 56.2 µM
same,Potency,[7],active: 12.6 µM
same,Potency,[8],inactive
same,Potency,[9],active: 11.2 µM
same,Potency,[10],active: 31.6 µM
CC(=O)Nc1ccc([As](=O)(O)O)c(O)c1,Potency,[11],inactive
Cc1cc(N(CCCl)CCCl)ccc1C=O,Potency,[12],inactive
same,Potency,[13],active: 25.9 µM
ClCCSc1nnc(-c2cccnc2)o1,Potency,microRNA 21,inactive
ClCCN(CCCl)c1ccc(C=C2C=CC=C2)cc1,Potency,[14],active: 44.7 µM
same,Potency,[15],active: 1.41 µM
same,Potency,[13],active: 1.26 µM
O=P1(N(CCCl)CCCl)SCCCS1,Potency,[16],inactive
O=[N+]([O-])c1ncn(F)c1[N+](=O)[O-],GI50,RXF 393,inactive: > 100 µM
Nc1nc2c(ncn2CCN(CCCl)CCCl)c(=O)[nH]1,GI50,NCI-H23,inactive: > 100 µM
same,GI50,RXF 393,inactive: > 100 µM
O=C(Nc1cc([As](=O)(O)O)ccc1O)c1ccccc1,Potency,[17],inactive
CCC1=CC2Cc3nc4ccc(Cl)cc4c(N)c3C(C1)C2 (stereo not given),Potency,[17],inactive
COc1cc(C2NCCC3(OCCO3)C2(C)C)cc(OC)c1OC (stereo not given),Potency,[17],inactive
Cc1ccc2ccc(C)c(C)c2c1.O=[N+]([O-])c1cc([N+](=O)[O-])c(O)c([N+](=O)[O-])c1O,GI50,NCI-H23,inactive: > 100 µM
same,GI50,RXF 393,inactive: > 100 µM
O=[As](O)(O)O,GI50,NCI-H23,inactive: > 100 µM
same,GI50,RXF 393,inactive: > 100 µM
NNc1nc2nonc2nc1NN,GI50,NCI-H23,inactive: 44.4 µM
same,GI50,RXF 393,inactive: > 100 µM
Cc1[nH]c2c(C)c([N+](=O)[O-])c(C)c([N+](=O)[O-])c2c1[N+](=O)[O-],GI50,NCI-H23,inactive: 3.48 µM
same,GI50,RXF 393,inactive: 9.59 µM
O=[N+]([O-])c1cc([N+](=O)[O-])c(Nc2ccc(Cl)cc2)c([N+](=O)[O-])c1,Potency,HepG2,active: 11.2 µM
same,Potency,[18],active: 14.1 µM
same,Potency,[19],active: 12.6 µM
same,Potency,[20],inactive
same,Potency,[15],active: 1.03 µM
same,Potency,[13],active: 1.46 µM
same,Potency,[21],inactive
same,Potency,[22],inactive
